## AlphaSeq binding of Ab-14 light chain variants to a spike HR2 peptide

Data: MIT Lincoln Laboratory AlphaSeq set, Engelhart et al. 2022, doi:10.1038/s41597-022-01779-4, as distributed in FLAb.

The target is the same throughout: PDVDLGDISGINAS, from the HR2 region of SARS-CoV-2 spike.

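AAYL50 was designed without a model: most single CDR substitutions and a random sample of double and triple ones. The assay is AlphaSeq: two haploid yeast populations carry antibody and antigen on their surface. Mating (16 h, 30 °C) was followed by selection of diploids and sequencing of their barcodes. The ratio of observed to expected reads was calibrated, replicate by replicate, on BCL2-family standards whose Kd was known from biolayer interferometry. Mating was done three times.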

Parent: Ab-14, a human scFv built as VH, the linker GGGGSGGGGSGGGGS, VL. Only the CDRs of the light chain vary.
VH: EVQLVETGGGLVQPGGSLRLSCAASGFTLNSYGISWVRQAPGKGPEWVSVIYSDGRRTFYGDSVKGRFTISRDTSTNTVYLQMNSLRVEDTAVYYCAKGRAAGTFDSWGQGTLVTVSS
VL: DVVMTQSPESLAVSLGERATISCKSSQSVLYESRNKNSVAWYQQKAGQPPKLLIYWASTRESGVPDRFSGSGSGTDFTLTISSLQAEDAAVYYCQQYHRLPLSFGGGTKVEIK

The parent's light chain CDRs are KSSQSVLYESRNKNSVA, WASTRES, QQYHRLPLS; each variant's own CDRs replace them letter for letter. The Kd shown is the geometric mean over detected replicates; a lower Kd is a better binder. "not detected" marks a missing value. The strain was present, yet no cells mated with the target were sequenced in any replicate, which points to weak or no binding. Background: pairings of library AAYL50 with three empty control strains gave a value in 18% of cases (median 15 µM, 5th percentile 970 nM). Values in that range, when seen in few replicates, are hard to tell from nonspecific mating.

| # | Kd (apparent) | seen in | CDR-L1 | CDR-L2 | CDR-L3 |
|---|---|---|---|---|---|
| 1 | 5.9 nM | 3 of 3 | KSENSVLYESRNKNSVA | WASTRES | QQRHRLPLS |
| 2 | 140 nM | 3 of 3 | KSSQSVEYLSRNKNCVA | WASTRES | QQYHRLPLS |
| 3 | 24 nM | 3 of 3 | KSSLSVLWESRPKNSVA | WASTRES | QQYHRLPLS |
| 4 | 620 nM | 3 of 3 | KPSTSVLYHSRNKNSVA | WASTRES | QQYHRLPLS |
| 5 | 51 nM | 3 of 3 | KSNQTVLYESRNKNSVA | WASTREY | QQYHRLPLS |
| 6 | 400 µM | 1 of 3 | KSSQIVLYESRNKNSVA | WASTRES | QQYHRLHLH |
| 7 | 300 nM | 3 of 3 | KSIRSVLYESRNKNSVA | WASTRES | QQYHRLPQS |
| 8 | not detected | 0 of 3 | KSSQTVLYESRLKNSVA | WASTRES | QQYHWLPLS |
| 9 | 8.3 nM | 3 of 3 | KSSQSVLYESRNKNSVA | WASTRHD | QQYHKLPLS |
| 10 | not detected | 0 of 3 | KSSQEVLYESRNKNSHA | WASTRES | QQYHRLPLF |
| 11 | 59 nM | 3 of 3 | KSSQSVLSESRNKRSVA | WASTRVS | QQYHRLPLS |
| 12 | 10 nM | 3 of 3 | KSSQSVLYDSRNKNSVA | WAQTRES | QRYHRLPLS |
| 13 | not detected | 0 of 3 | KSSQSTLYESDNKNSVA | WASTRES | QQKHRLPLS |
| 14 | 25 µM | 2 of 3 | KSFQSVLYESRNKNSVA | CASTDES | QQYHRLPLS |
| 15 | not detected | 0 of 3 | KSSQSVLYESRNKNSVP | WAETLES | QQYHRLPLS |
| 16 | 160 nM | 3 of 3 | KSSQSVLYESRNKESVA | WASTRES | QQYHKLPLG |
| 17 | not detected | 0 of 3 | KSSASVLYESRNKNSVA | WMSTRES | QQYHRLVLS |
| 18 | 1.4 µM | 3 of 3 | KSSQSVLYLSRNKNSVA | WASTRES | TQYHRLALS |
| 19 | not detected | 0 of 3 | KKSQSVLYESRNKLSVE | WASTRES | QQYHRLPLS |
| 20 | not detected | 0 of 3 | KSSQSVLYESRNKNKVK | WAVTRES | QQYHRLPLS |
| 21 | 24 µM | 2 of 3 | KSSQSVLYRSRNKNSVS | WASTRES | SQYHRLPLS |
| 22 | not detected | 0 of 3 | KSSQSVLYESRNKNRVA | WASTRWS | QQYHGLPLS |
| 23 | 820 nM | 2 of 3 | KSSQSVLYQSRHKNSVA | WQSTRES | QQYHRLPLS |
| 24 | 23 µM | 3 of 3 | KSSTSVLYFSRNKNSVA | WASTREF | QQYHRLPLS |
| 25 | 6.4 µM | 1 of 3 | KSSQSVLYESRSKNSVG | WASTRES | QQYHRLPLV |
| 26 | 390 nM | 3 of 3 | KSSNSVLYESRNRNSVA | WASTRES | QSYHRLPLS |
| 27 | not detected | 0 of 3 | KSSQSVLYDSRNPNSVD | WASTRES | QQYHRLPLS |
| 28 | not detected | 0 of 3 | WSSQSVLYESRNKNSVA | WAATRTS | QQYHRLPLS |
| 29 | 56 µM | 1 of 3 | KSRWSVLYESRNKNSVA | WASTRES | YQYHRLPLS |
| 30 | 14 nM | 3 of 3 | KSSQMYLYESRNRNSVA | WASTRES | QQYHRLPLS |
| 31 | not detected | 0 of 3 | KSSQSKLYESRNKTSVQ | WASTRES | QQYHRLPLS |
| 32 | 280 nM | 2 of 3 | KSSQSVLYESRNKNSVA | WALDRES | QNYHRLPLS |
| 33 | not detected | 0 of 3 | KWSQSVLYELRNKNSVA | WASTRES | QQYHRPPLS |
| 34 | not detected | 0 of 3 | KSSQSVLYLFRNKNSVA | WASTREQ | QQYHRLPLS |
| 35 | 5.7 nM | 3 of 3 | ESSQSVLYESYNKNSVA | WASTRES | QQYHRLPLS |
| 36 | 250 nM | 3 of 3 | KFSQSVLYESRNKNSVA | WAGTRES | QQYHRLPLS |
| 37 | not detected | 0 of 3 | KDSQSVLYESRNKVSVA | WASTTES | QQYHRLPLS |
| 38 | 1.1 µM | 3 of 3 | RSSQSVIYESRRKNSVA | WASTRES | QQYHRLPLS |
| 39 | 25 nM | 3 of 3 | KSSQSSLYESLNKNSVA | WASTRES | QQYHRTPLS |
| 40 | 3.1 µM | 1 of 3 | KSSQSVLYESRNKNSVA | WASTRES | QQYWRLNLS |
| 41 | 11 nM | 3 of 3 | KSSQSVLYETYNKNSVA | WASTRES | QQYHNLPLS |
| 42 | 22 µM | 3 of 3 | KSSQSVLYESCNKNSVA | WAGTRCS | QQYHRLPLS |
| 43 | 3.3 nM | 3 of 3 | KSSQSVLSESRNTNSVA | WASTRFS | QQYHRLPLS |
| 44 | 910 nM | 3 of 3 | KSSQSVLYESRNGNSVA | WSSTRES | QQYHLLPLS |
| 45 | 8.9 nM | 3 of 3 | KSSQSVLYESRNCNSVA | WASTRES | QQYHRLWLA |
| 46 | 310 nM | 3 of 3 | KSIQSVLYESRNKWSVA | WASTRES | QQYSRLPLS |
| 47 | 1.7 nM | 3 of 3 | KSSASVLYESRNKNSVA | QASTRES | QCYHRLPLS |
| 48 | 25 nM | 3 of 3 | HSSQSVLYESRNKKSVA | WASTRYS | QQYHRLPLS |
| 49 | not detected | 0 of 3 | KSSQSVLYESRNKNSVA | WAFTRLS | QQYHRLPSS |
| 50 | 5.1 µM | 2 of 3 | KSSQSVLKESRNKNSVA | WASTPES | QQYHVLPLS |
| 51 | not detected | 0 of 3 | KSSQSVLYPSRNKNSVA | WASTRES | QQYHRTPHS |
| 52 | 44 nM | 3 of 3 | KSSQSVLCESRNKNSVA | WASTRES | QTYHWLPLS |
| 53 | 3.4 nM | 3 of 3 | KSSQSVLYESRNKNSVA | WASLREA | QQYSRLPLS |
| 54 | not detected | 0 of 3 | KSSQSVLYESRRKNEVA | WASTRES | QQYHRLPLC |
| 55 | 1.3 mM | 1 of 3 | KSSQSVLYESRNKNSVA | WASTRES | QQYHRLNNW |
| 56 | not detected | 0 of 3 | KSSQSVLYESRNKNWVA | WASTKES | QQCHRLPLS |
| 57 | not detected | 0 of 3 | KSWQSVCYESRNKNSVA | SASTRES | QQYHRLPLS |
| 58 | not detected | 0 of 3 | KSSQFVLYESRNKNSVA | WNSTRES | QQYHRKPLS |
| 59 | 8.0 µM | 2 of 3 | KMSQSVLYESRNKNSVA | WAWTRES | QQRHRLPLS |
| 60 | not detected | 0 of 3 | KSSQSALYESRNKNSVN | WASTRPS | QQYHRLPLS |
| 61 | 9.2 nM | 3 of 3 | KWSQSVLTESRNKNSVA | WASTREF | QQYHRLPLS |
| 62 | 38 µM | 1 of 3 | KSSQSCLYESRNKNVVA | WASTRES | QAYHRLPLS |
| 63 | 18 nM | 3 of 3 | KSSQSVNYESVNKNSVA | WASTRES | QQYTRLPLS |
| 64 | 130 nM | 3 of 3 | KSSQSVLYENKNKNSVA | WASTRES | QQYHRLPTS |
| 65 | 15 nM | 3 of 3 | KDSQSVLYESRNENSVA | WATTRES | QQYHRLPLS |
| 66 | 170 nM | 3 of 3 | KSLQSVLYEHRNINSVA | WASTRES | QQYHRLPLS |
| 67 | 23 nM | 3 of 3 | CSIQSVLYESRNKNSVK | WASTRES | QQYHRLPLS |
| 68 | not detected | 0 of 3 | KSSQSVLYGSRNKISVA | WASTRES | QQAHRLPLS |
| 69 | 130 nM | 3 of 3 | KSSQVVLYESRNKNSVA | CASTRES | QQCHRLPLS |
| 70 | not detected | 0 of 3 | KSSQSVLYESRNKNIVR | WASTRVS | QQYHRLPLS |
| 71 | 8.0 nM | 3 of 3 | KSSQSVLYESRNKNSVA | WASHRES | QQYHPLPLS |
| 72 | 4.9 nM | 3 of 3 | KSSQSFLYESRNKNSVA | WASTRES | QQYPVLPLS |

Again, the first 11 entries without any signal:

| CDR-L1 | CDR-L2 | CDR-L3 | Kd (apparent) | seen in |
|---|---|---|---|---|
| KSSQTVLYESRLKNSVA | WASTRES | QQYHWLPLS | not detected | 0 of 3 |
| KSSQEVLYESRNKNSHA | WASTRES | QQYHRLPLF | not detected | 0 of 3 |
| KSSQSTLYESDNKNSVA | WASTRES | QQKHRLPLS | not detected | 0 of 3 |
| KSSQSVLYESRNKNSVP | WAETLES | QQYHRLPLS | not detected | 0 of 3 |
| KSSASVLYESRNKNSVA | WMSTRES | QQYHRLVLS | not detected | 0 of 3 |
| KKSQSVLYESRNKLSVE | WASTRES | QQYHRLPLS | not detected | 0 of 3 |
| KSSQSVLYESRNKNKVK | WAVTRES | QQYHRLPLS | not detected | 0 of 3 |
| KSSQSVLYESRNKNRVA | WASTRWS | QQYHGLPLS | not detected | 0 of 3 |
| KSSQSVLYDSRNPNSVD | WASTRES | QQYHRLPLS | not detected | 0 of 3 |
| WSSQSVLYESRNKNSVA | WAATRTS | QQYHRLPLS | not detected | 0 of 3 |
| KSSQSKLYESRNKTSVQ | WASTRES | QQYHRLPLS | not detected | 0 of 3 |

In this assay the parent's reference entry averaged 4.4 nM; its copy inside this library read 48 nM.